This note sets out measurements from PubChem BioAssay AID1948 (National Center for Advancing Translational Sciences (NCATS), 2009).

Only a part is listed here, and it is no random draw. Active and inactive are the calls of the source. The call rests on the fitted dose curve; in most records, active means well fitted activation curve with a large enough effect; inconclusive means small, poorly fitted or top-dose-only effect; inactive means no such curve, though single readings can be large or run the other way.

This test can be described thus: qHTS Assay for Compounds that Induce Erasure of Genomic Imprints.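 Further: 0% = negative control wells on the plate.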 As to conditions: mouse ES Peg3-LacZ reporter, beta-gal luminescence, 40 h; at 60.7 µM (top of the series).
Regarding `Cc1cc([N+](=O)[O-])cc([N+](=O)[O-])c1O`, the activity change, positive = activation is inactive: -19.4%.
